{
  "source": "patent US20180015170A1",
  "about": "“CYCLODEXTRIN-BASED POLYMERS FOR THERAPEUTIC DELIVERY” (CERULEAN PHARMA INC., priority 2012, published 2018)",
  "assay": "Tolerability (body weight) in the B16.F10 murine melanoma model",
  "details": "15 mg/kg IV, three injections over 2 weeks (twice per week); listed as CDP-Gly-DTX nanoparticle formulation",
  "data": [
    {"substance": "CDP-2′-glycine-docetaxel [CDP-Gly-DTX formulation]", "values": [
      {"measurement": "Maximum body weight loss (%)", "result": "did not cause any significant body weight loss"}
    ]}
  ]
}
